## Yeast mating assay B: variants of the scFv Ab-14

Target peptide (SARS-CoV-2 spike, HR2 region): PDVDLGDISGINAS

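The starting antibody came from a phage panning campaign against this peptide. The variants were designed computationally from a first round of random CDR variants and then made and measured. Several design methods are mixed in this list. In AlphaSeq, yeast of one mating type display the scFv and yeast of the other type display the target. Pairs that bind mate more often; barcode pairs of the diploids are counted by sequencing. The ratio of observed to expected reads was calibrated, replicate by replicate, on BCL2-family standards whose Kd was known from biolayer interferometry. There are six technical replicates.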

Ab-14 is the parent antibody, in scFv form: VH, then a 15-residue (Gly4Ser)3 linker, then VL. The light chain is unchanged in all variants.
VH: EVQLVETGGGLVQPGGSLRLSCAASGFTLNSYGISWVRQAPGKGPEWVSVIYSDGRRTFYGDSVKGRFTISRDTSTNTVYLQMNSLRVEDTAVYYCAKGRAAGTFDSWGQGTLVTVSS
VL: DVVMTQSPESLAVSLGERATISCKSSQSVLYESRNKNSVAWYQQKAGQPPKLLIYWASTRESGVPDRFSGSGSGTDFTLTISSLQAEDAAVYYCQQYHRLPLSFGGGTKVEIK

Each variant is given by its three heavy chain CDRs, as the data file delimits them; those of the parent are GFTLNSYGIS, VIYSDGRRTFYGDSVK, GRAAGTFDS.
Affinities are written as log10 Kd with Kd in nM; a lower number is a better binder.
A mean of the replicates is given; it leaves out those without a signal.
Where no diploid with the target was found in any replicate, the entry reads "no signal": below detection, most likely a poor binder, though not proof of it.
The parent sequence was in this pool as ten entries: three were never detected, three once, and four in most replicates, with averages from 0.34 to 2.37.

{"CDR-H1": "GFHLNSYGIS", "CDR-H2": "VIYSDGRRTFYQDSVK", "CDR-H3": "GKVAGTFDS", "mean log10 Kd (nM)": "1.37", "seen in": "6/6"}
{"CDR-H1": "GFTLNSYGIS", "CDR-H2": "VIYSDGRRTFYQDSVK", "CDR-H3": "GRAAFTFDS", "mean log10 Kd (nM)": "2.36", "seen in": "2/6"}
{"CDR-H1": "GFDLQEYGIS", "CDR-H2": "VIYADGKRSMYTNDVK", "CDR-H3": "GELGLGELI", "mean log10 Kd (nM)": "0.85", "seen in": "1/6"}
{"CDR-H1": "GFSLNEYGIS", "CDR-H2": "VIYSDGRRTFYGDSVK", "CDR-H3": "GRLAGTFDT", "mean log10 Kd (nM)": "-1.21", "seen in": "6/6"}
{"CDR-H1": "GFELNSYGIS", "CDR-H2": "VIYSDGRRTFYGDSVK", "CDR-H3": "GDAAGTFDG", "mean log10 Kd (nM)": "no signal", "seen in": "0/6"}
{"CDR-H1": "EFDLNEYGIS", "CDR-H2": "VIYADGKRTFYAEHVK", "CDR-H3": "GTNAGVFDT", "mean log10 Kd (nM)": "1.62", "seen in": "6/6"}
{"CDR-H1": "GFTLNSYGIS", "CDR-H2": "VIYSDGKRTFYGDKVK", "CDR-H3": "GQTAGTFDL", "mean log10 Kd (nM)": "1.21", "seen in": "6/6"}
{"CDR-H1": "GFDLNEYGIS", "CDR-H2": "VIYADGVRTAYIDSVK", "CDR-H3": "GSNAGTFDV", "mean log10 Kd (nM)": "-0.36", "seen in": "6/6"}
{"CDR-H1": "GFSLNSYGIS", "CDR-H2": "VIYSDGRRTFYADSVK", "CDR-H3": "GRVAGTFDK", "mean log10 Kd (nM)": "0.37", "seen in": "6/6"}
{"CDR-H1": "GFDLNEYGIS", "CDR-H2": "VIYADGVRTAYSDKVK", "CDR-H3": "GENAGTFDV", "mean log10 Kd (nM)": "0.02", "seen in": "6/6"}
{"CDR-H1": "KFDLNSYGIS", "CDR-H2": "VIYSDGRRTYYGDSVK", "CDR-H3": "GRTAGTFDS", "mean log10 Kd (nM)": "0.18", "seen in": "6/6"}
{"CDR-H1": "GFTLNEYGIS", "CDR-H2": "VIYSDGRRTFYGDSVK", "CDR-H3": "GHAAGTFDK", "mean log10 Kd (nM)": "0.35", "seen in": "4/6"}
{"CDR-H1": "HFTLNSYGIS", "CDR-H2": "AIYSDGRRTFYGDSVK", "CDR-H3": "GRAAGTFVE", "mean log10 Kd (nM)": "no signal", "seen in": "0/6"}
{"CDR-H1": "GFDLNSYGIS", "CDR-H2": "VIYSDGRRTFYVDSVK", "CDR-H3": "GRQAGTFDA", "mean log10 Kd (nM)": "no signal", "seen in": "0/6"}
{"CDR-H1": "GFTLNEYGIS", "CDR-H2": "VIYSDGRRTFYGDSVK", "CDR-H3": "GRIAGTFDN", "mean log10 Kd (nM)": "0.63", "seen in": "6/6"}
{"CDR-H1": "GFELNSYGIS", "CDR-H2": "VIYSDGRRTFYADSVK", "CDR-H3": "GKTAGTFDW", "mean log10 Kd (nM)": "1.05", "seen in": "3/6"}
{"CDR-H1": "KFTLNSYGIS", "CDR-H2": "VIYSDGRRTAYEDSVK", "CDR-H3": "GSAAGTFDS", "mean log10 Kd (nM)": "1.94", "seen in": "3/6"}
{"CDR-H1": "GFTLESYGIS", "CDR-H2": "VIYSDGRRVFYNDSVK", "CDR-H3": "GRAAGTFDS", "mean log10 Kd (nM)": "1.71", "seen in": "5/6"}
{"CDR-H1": "GFTLNSHGIS", "CDR-H2": "VIYSDGRRTFYGDSVK", "CDR-H3": "GTAAGTFDS", "mean log10 Kd (nM)": "1.46", "seen in": "3/6"}
{"CDR-H1": "GFTLNSYGIS", "CDR-H2": "VIYSDGRRTFYGDSVK", "CDR-H3": "RTAAGWFDS", "mean log10 Kd (nM)": "no signal", "seen in": "0/6"}
{"CDR-H1": "GFDLNEYGIS", "CDR-H2": "VIYADGMRTYYADSVK", "CDR-H3": "GQVAGTFDV", "mean log10 Kd (nM)": "-0.69", "seen in": "6/6"}
{"CDR-H1": "GFDLNEYGIS", "CDR-H2": "VIYADGMRTAYSDSVK", "CDR-H3": "GEVAGTFVS", "mean log10 Kd (nM)": "0.08", "seen in": "6/6"}
{"CDR-H1": "GFDLGEYGIS", "CDR-H2": "VIYADGQRAAYQQQFK", "CDR-H3": "GEAGGAFDL", "mean log10 Kd (nM)": "no signal", "seen in": "0/6"}
{"CDR-H1": "GFTLNSYGIH", "CDR-H2": "VIYSDGRRTFYEDSVK", "CDR-H3": "GRFAGTFDS", "mean log10 Kd (nM)": "0.42", "seen in": "6/6"}
{"CDR-H1": "GFSLNEYGIS", "CDR-H2": "VIYSDGRRTFYGDSVK", "CDR-H3": "GRVAGTFDK", "mean log10 Kd (nM)": "-0.26", "seen in": "5/6"}
{"CDR-H1": "GYDLNEYGIS", "CDR-H2": "VIYADGIRVAYQNQVK", "CDR-H3": "GNINGSFTF", "mean log10 Kd (nM)": "no signal", "seen in": "0/6"}

3 of these entries, quoted again:

{"CDR-H1": "GYDLNEYGIS", "CDR-H2": "VIYADGIRVAYQNQVK", "CDR-H3": "GNINGSFTF", "mean log10 Kd (nM)": "no signal", "seen in": "0/6"}
{"CDR-H1": "GFDLNEYGIS", "CDR-H2": "VIYADGMRTAYSDSVK", "CDR-H3": "GEVAGTFVS", "mean log10 Kd (nM)": "0.08", "seen in": "6/6"}
{"CDR-H1": "GFTLNSYGIS", "CDR-H2": "VIYSDGKRTFYGDKVK", "CDR-H3": "GQTAGTFDL", "mean log10 Kd (nM)": "1.21", "seen in": "6/6"}

The range of this assay differs from that of the first round, and the authors advise against merging the two.
The authors averaged sequences with at least three values out of six and counted those with two or fewer as poor binders.
Empty control strains, which show no peptide, gave a signal in 1% of pairings with all heavy chain designs; the median was 2.08 and 95% of these signals were weaker than 0.84. No background was subtracted.

Values reported by Li et al. 2023, doi:10.1038/s41467-023-39022-2 (FLAb copy).